In patent US20030157084A1, “Methods for preparing purified prostaglandin E synthase” (priority 2001, published 2003):

Assay type: physicochemical
Description: Membrane fractions were solubilized in 50 mM sodium phosphate buffer, pH 8.0, 150 mM NaCl, 4% Triton X-100, 10% glycerol and 1 mM GSH and stored at 4° C. Samples were assayed for PGES activity as described above after 0, 3, 6, 24 and 240 h (10 days) at 4° C.
The activity of the purified His6-hPGES was assayed on a sample of protein. The remaining protein was divided in two parts, one was stored at 4° C. for 5 days, and one was frozen and stored at −20° C. for the same time. The PGES activity in the three samples was compared with that in a membrane fraction without solubilization. PGES activity was determined, as described above, for various amounts of protein. The samples were incubated for 1 min on ice or at 37° C. before stopping the reaction. The activity of the purified proteins was compared with the activity in BL21(DE3) membrane fraction without solubilization.

B1: His6-hPGES: full length human PGES fused at its N-terminus to six histidine residues (SEQ ID NO: 4), expressed in E. coli (protein)
chain: MHHHHHHMPAHSLVMSSPALPAFLLCSTLLVIKMYVVAIITGQVRLRKKAFANPEDALRHGGPQYCRSDPDVERCLRAHRNDMETIYPFLFLGFVYSFLGPNPFVAWMHFLVFLVGRVAHTVAYLGKLRAPIRSVTYTLAQLPCASMALQILWEAARHL
PGES activity after solubilization or freeze-thawing: does not appear to be affected by solubilization or freeze-thawing
